This passage reports IC50 results from BindingDB's records for 10091683.

Protein sequences, listed by entry. Tags and fused reporters are not part of them. Lines headed by an entry give the natural chain unless they say otherwise; changes in a name come on top.
UniProt P18031: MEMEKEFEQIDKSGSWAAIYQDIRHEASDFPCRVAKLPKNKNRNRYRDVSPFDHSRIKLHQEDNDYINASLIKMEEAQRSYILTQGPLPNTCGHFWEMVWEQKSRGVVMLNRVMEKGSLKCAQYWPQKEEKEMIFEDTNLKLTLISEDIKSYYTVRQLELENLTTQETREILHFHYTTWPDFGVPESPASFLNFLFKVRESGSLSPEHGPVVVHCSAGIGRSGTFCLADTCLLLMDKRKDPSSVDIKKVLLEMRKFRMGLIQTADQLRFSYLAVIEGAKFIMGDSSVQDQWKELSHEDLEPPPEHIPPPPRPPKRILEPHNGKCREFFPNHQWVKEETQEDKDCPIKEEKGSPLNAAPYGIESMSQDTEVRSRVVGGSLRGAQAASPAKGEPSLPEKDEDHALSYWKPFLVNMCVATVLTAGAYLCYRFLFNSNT

For the assay, the target named is Tyrosine-protein phosphatase non-receptor type 1 (Homo sapiens, UniProt P18031). Briefly: ChEBML_162100.

pIC50: −log10 of the molar value.

By pIC50 is commonly meant −log10 of the IC50, conventionally taken in molar units. A low value points to a high IC50. On to `O=C(O)c1ccc(I(=O)=O)cc1`, for which the pIC50 was 3.70.
